US9075060B2, “Methods for diagnosing oral or oral-pharyngeal cancer” (Technion Research & Development Foundation Limited, priority 2009, dated 2015)

By UniProt entry, the sequences of proteins in these tests, tags left out.
UniProt P30536, whole entry: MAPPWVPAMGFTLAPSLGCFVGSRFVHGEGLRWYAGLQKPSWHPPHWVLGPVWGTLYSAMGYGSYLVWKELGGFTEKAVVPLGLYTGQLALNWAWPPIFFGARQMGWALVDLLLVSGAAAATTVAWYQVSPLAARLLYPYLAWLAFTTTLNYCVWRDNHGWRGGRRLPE

Tests used:
TSPO [1] = target: T1, TSPO (Homo sapiens, UniProt P30536); assay: [3H]PK 11195 binding to membranes of SCC-15 cells, Scatchard analysis
T1 construct: Assays of [^3H]; host or cells: SCC-25 and SCC-15 human oral cancer cell lines
Procedure: (§1) Assays of [^3H] […] After 80 minute incubation at 4° C., the samples were filtered through Whatman CF/C filters using a vacuum system, washed three times with 4 ml of 5 mM ice cold phosphate buffer and placed in vials containing 4 ml of CytoScint™ (MP Biomedicals, Costa Mesa, Calif.). Radioactivity was counted after 12 hours with a liquid scintillation analyzer. Specific binding was obtained by subtracting non-specific binding from total binding.

TSPO [2] = target: T1, TSPO; assay: [3H]PK 11195 binding to membranes of SCC-25 cells, Scatchard analysis
Procedure: as §1

CCC(C)N(C)C(=O)c1cc2ccccc2c(-c2ccccc2Cl)n1 (centres unmarked) [[^3H]PK 11195, PK 11195]
Kd (TSPO [1]): 5.9 ± 4.6 nM
Kd (TSPO [2]): 5.7 ± 2 nM
